{"source": "patent US7834174B2", "about": "“Per-6-guanidino-, alkylamino-cyclodextrins, methods of their synthesis and their use for the compaction of DNA and intercellular delivery” (priority 2004, dated 2010)", "key": {"[1]": {"test_system": "ultrapure calf thymus DNA 13 kb", "assay": "DNA compaction: electrophoresis in agarose gel with ethidium bromide as stain", "type": "binding"}, "DNA": {"test_system": "DNA", "assay": "DNA-bguan interaction by UV absorption spectra", "details": "1 equivalent bguan, buffer solution"}}}
{"substance": "Heptakis(6-deoxy-6-guanidino)-β-cyclodextrin", "values": [{"measurement": "mass/charge ratio at which the compound compacts DNA", "setting": "[1]; ratio mass/charge of compound to that of DNA, agarose gel electrophoresis", "result": "≤ 0.45"}, {"measurement": "mobility of DNA during electrophoresis", "setting": "[1]; wells c and d (bguan 10 λ and 5 λ of 1.01×10^−4 M, DNA 1 λ)", "result": "completely stalled"}, {"measurement": "mobility of DNA during electrophoresis", "setting": "[1]; wells e and f (bguan 1 λ and 1 λ of stock diluted 1:10, DNA 1 λ)", "result": "partial inhibition"}, {"measurement": "absorption maximum and shape of the absorbance curve of DNA", "setting": "DNA", "result": "changed appreciably"}, {"measurement": "solubility in water", "setting": "Solubility in water", "result": 59, "unit": "mM"}]}
